{
  "source": "patent US11766068B1",
  "about": "“Method of treating smokeless tobacco” (Altria Client Services LLC, priority 2009, dated 2023)",
  "origin": "cited, not measured here",
  "details": "cited from earlier work",
  "data": [
    {"substance": "Tocopheryl polyethylene glycol succinate", "values": [
      {"measurement": "solubility (water)", "result": 200, "unit": "mg/mL"}
    ]}
  ]
}
